We go through four molecules from ChEMBL document CHEMBL3585253, “Thiazolidine-2,4-dione derivatives: programmed chemical weapons for key protein targets of various pathological conditions” (2015).

Sequences of proteins named here, by UniProt entry; tags and fusion partners are left off. A change or cut given only in a name is not applied to a line headed by its entry.
UniProt P18031: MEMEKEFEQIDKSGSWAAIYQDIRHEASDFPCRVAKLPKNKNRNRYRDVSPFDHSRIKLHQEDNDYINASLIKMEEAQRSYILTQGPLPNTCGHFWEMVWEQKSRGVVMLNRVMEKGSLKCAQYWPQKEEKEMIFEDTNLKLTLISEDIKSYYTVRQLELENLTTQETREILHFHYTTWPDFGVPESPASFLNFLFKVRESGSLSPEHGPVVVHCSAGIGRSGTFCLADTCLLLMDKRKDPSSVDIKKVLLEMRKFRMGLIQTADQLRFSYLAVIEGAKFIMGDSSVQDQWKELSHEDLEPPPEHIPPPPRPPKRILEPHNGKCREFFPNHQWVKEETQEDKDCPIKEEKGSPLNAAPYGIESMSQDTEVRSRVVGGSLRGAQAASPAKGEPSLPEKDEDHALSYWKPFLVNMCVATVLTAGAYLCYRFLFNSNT
UniProt P37231: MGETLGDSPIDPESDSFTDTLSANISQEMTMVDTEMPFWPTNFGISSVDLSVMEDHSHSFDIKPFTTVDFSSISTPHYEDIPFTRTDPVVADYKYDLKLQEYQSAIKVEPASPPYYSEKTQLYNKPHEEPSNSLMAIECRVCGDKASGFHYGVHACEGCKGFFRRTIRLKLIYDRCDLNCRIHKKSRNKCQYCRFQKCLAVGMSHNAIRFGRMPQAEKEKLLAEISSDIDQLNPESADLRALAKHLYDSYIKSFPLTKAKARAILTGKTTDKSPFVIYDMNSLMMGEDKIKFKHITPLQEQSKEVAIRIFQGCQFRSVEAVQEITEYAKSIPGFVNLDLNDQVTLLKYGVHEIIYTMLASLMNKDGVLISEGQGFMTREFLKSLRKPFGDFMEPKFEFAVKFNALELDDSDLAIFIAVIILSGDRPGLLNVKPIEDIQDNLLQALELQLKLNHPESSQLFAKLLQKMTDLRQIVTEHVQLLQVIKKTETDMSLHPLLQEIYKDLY

The target of assay [1] is Aldo-keto reductase family 1 member B1 (Homo sapiens, UniProt P15121). Put plainly: Inhibition of aldose reductase (unknown origin).
The target of assay [2] is Tyrosine-protein phosphatase non-receptor type 1 (Homo sapiens, UniProt P18031). Put plainly: Inhibition of GST-tagged PTP1B (unknown origin) by pNPP catalysis based colorimetric high throughput assay.
For assay [3], the target named is Peroxisome proliferator-activated receptor gamma (Homo sapiens, UniProt P37231). In words: Agonist activity at PPARgamma (unknown origin).

The term IC50 denotes the point on the concentration scale where inhibition reaches its midpoint. A high value points to lower potency.

Structures are written as SMILES.

For the molecule `O=C(O)CN1C(=O)S/C(=C\c2ccc(Oc3ccccc3)cc2)C1=O`, it took 0.13 µM to reach half-maximal inhibition in assay [1] (IC50).
In turn, `O=C1NC(=O)/C(=C/c2ccc(-c3ccc(OCc4ccccc4)cc3)cc2)S1` returned an IC50 in assay [2] of 0.69 µM.
For the molecule `O=C1NC(=O)/C(=C/c2ccc(Oc3ccccc3)cc2)S1`, inhibition in assay [1] was half-maximal at 6.14 µM (IC50).
In assay [3], `C/C(=N/OCCOc1cccc(CC2SC(=O)NC2=O)c1)c1ccc(-c2ccccc2)cc1` (centres undefined) came in with an IC50 of 0.19 µM.
